The values below come from patent EP4840854A1, “PIPERIDINYL INDOLE DERIVATIVE, PREPARATION METHOD THEREFOR AND USE THEREOF” (dated 2026).

The chains behind the UniProt entries cited, without tags or fusion partners. Residues count along the entry.
UniProt P00751, 260-764 limits assumed: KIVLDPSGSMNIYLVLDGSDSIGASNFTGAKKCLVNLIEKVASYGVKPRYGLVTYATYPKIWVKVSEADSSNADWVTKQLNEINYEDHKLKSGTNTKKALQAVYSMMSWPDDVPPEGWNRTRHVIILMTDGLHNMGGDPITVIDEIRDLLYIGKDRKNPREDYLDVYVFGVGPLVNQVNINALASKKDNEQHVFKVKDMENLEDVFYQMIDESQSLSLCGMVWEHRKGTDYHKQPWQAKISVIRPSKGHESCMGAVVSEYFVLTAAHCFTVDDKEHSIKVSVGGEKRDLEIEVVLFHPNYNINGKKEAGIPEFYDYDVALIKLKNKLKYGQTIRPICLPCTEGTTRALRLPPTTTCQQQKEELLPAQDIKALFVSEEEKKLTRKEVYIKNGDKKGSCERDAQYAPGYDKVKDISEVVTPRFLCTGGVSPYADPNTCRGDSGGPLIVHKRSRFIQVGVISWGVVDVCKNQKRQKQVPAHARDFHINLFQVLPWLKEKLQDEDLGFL
UniProt P00751, 26-764 limits assumed: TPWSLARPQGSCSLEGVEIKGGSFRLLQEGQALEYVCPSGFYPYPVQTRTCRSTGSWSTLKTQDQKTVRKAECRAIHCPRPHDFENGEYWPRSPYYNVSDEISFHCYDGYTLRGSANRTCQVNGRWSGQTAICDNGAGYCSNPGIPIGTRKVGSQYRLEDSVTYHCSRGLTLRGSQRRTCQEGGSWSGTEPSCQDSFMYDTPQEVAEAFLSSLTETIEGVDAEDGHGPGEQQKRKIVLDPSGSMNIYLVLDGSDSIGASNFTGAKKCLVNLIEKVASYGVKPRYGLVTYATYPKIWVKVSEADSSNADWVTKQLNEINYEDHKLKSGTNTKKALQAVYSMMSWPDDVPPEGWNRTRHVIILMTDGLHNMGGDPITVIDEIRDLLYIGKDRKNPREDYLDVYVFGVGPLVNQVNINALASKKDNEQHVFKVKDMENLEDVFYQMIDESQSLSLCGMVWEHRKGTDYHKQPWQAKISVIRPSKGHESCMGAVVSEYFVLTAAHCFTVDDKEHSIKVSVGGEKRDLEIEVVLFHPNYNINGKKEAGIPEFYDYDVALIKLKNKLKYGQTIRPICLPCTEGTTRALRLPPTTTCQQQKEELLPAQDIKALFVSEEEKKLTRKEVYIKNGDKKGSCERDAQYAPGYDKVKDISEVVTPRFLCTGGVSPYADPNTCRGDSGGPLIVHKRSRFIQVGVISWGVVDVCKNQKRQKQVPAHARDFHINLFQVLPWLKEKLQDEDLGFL
UniProt Q91132, 23-649 partner limits assumed: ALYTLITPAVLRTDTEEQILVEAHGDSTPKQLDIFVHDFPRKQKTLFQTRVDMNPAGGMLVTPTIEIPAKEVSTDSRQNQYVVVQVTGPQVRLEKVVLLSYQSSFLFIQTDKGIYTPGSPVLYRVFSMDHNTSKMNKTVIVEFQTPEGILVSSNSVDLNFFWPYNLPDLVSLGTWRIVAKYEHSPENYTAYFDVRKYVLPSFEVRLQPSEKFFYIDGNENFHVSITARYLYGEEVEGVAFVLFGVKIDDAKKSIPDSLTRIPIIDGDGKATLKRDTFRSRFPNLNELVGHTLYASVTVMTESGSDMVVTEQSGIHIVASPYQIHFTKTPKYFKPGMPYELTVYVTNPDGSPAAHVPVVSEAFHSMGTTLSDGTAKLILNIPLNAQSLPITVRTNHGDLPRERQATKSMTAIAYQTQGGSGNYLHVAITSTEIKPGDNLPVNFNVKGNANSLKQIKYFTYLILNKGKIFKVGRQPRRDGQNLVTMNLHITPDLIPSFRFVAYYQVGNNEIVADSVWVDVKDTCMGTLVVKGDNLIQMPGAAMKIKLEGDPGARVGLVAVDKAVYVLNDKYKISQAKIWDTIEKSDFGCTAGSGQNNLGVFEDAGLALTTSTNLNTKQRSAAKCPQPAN
UniProt Q91132, 733-984 partner limits assumed: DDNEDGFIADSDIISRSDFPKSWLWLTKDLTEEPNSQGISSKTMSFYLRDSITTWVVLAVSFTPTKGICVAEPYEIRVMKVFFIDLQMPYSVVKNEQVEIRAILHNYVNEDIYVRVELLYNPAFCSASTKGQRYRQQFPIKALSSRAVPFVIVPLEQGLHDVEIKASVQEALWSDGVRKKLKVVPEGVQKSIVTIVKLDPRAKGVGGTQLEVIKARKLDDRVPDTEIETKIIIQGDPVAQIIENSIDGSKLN
UniProt Q91132, 1264-1642 partner limits assumed: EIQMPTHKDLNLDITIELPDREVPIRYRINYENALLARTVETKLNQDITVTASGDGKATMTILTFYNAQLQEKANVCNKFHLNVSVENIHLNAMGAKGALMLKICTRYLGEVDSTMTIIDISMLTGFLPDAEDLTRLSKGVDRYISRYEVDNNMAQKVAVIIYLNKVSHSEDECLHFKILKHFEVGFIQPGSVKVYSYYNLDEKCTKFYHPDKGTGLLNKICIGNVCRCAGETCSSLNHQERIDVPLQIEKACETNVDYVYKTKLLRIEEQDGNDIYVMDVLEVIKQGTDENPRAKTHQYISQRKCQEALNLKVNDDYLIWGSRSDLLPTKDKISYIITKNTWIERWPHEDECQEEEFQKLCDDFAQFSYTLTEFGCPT

A short description of series [1]: Stability test (acid stress, chiral and chemical purity). The settings on record: change after 4 N HCl at 50°C for 12 h.
The next series relates to red blood cells. Kind of series: PNH-like hemolysis assay (CD55/CD59-blocked red blood cells in acidified serum). The following applies: for IC50: read-out: Hemolysis Inhibition Rate (%), hemolysis inhibition IC50, acidified serum pH 6.4, 37°C, 6 h.
Another series deals with complement factor B (Homo sapiens, UniProt P00751). Kind of series: Affinity assay (Octet biosensor, NTA sensors with immobilised CFB). The following applies: read-out: Affinity for factor B. For orientation: Biolayer interferometry detects binding as a change in optical thickness at a sensor tip.
Another series can be described thus: PK study in beagle dogs. The following applies: male beagle dogs, po (oral gavage), 1 mg/kg.
For series [2], the target named is alternative complement pathway (Homo sapiens, UniProt P00751). The experiment in a line: AP deposition assay (WIESLAB Complement System Alternative Pathway, C5b-9 readout in human serum).
For a further series, the target named is CVF-Bb (Homo sapiens, UniProt P00751). The experiment in a line: CVF-Bb assay (C3a generation by the CVF-Bb C3 convertase). The following applies: read-out: CVF-Bb assay (IC50).
A further series relates to rabbit erythrocytes. The experiment in a line: Rabbit erythrocyte hemolysis assay (rat serum with EGTA). The following applies: read-out: Rabbit Hemolysis Inhibition Rate(IC50); 2% rabbit erythrocytes, rat serum with EGTA/MgCl2, 37°C, 3 h.
Series [3] in a line: Rat pharmacokinetic study. The following applies: SD rats, po (oral gavage), 1 mg/kg; for F: bioavailability.
Series [4] concerns alternative complement pathway. The experiment in a line: LPS-induced complement activation assay in mice (plasma C3b). The following applies: for plasma C3b levels compared with the model control group: result in words.
Series [5] is described as follows: Mouse pharmacokinetic study. The settings on record: BALB/c mice, 1 mg/kg; for F: bioavailability.
Where [6] appears, read: read-out: AP complement deposition assay, Table 11.
Setting [7] is: 60 mg/kg oral gavage about 1.5 h after LPS 2.5 mg/kg i.p., plasma about 6 h after administration.
[8] abbreviates: 120 mg/kg oral gavage about 1.5 h after LPS 2.5 mg/kg i.p., plasma about 6 h after administration.

Like-named read-outs stand apart in the source and are kept apart here. Marks after values point to notes of the source that are not given here.

In the case of `[2H]c1c(OC)c(CN2CC[C@H](OCC)C[C@H]2c2ccc(C(=O)O)cc2C)c2cc[nH]c2c1C`, in series [1], the “Chemical Purity” value is -0.29% and the “Chiral Purity” value was “Unchanged”.
Take `CCO[C@H]1CCN(Cc2c(OC)cc(C)c3[nH]ccc23)[C@H](c2ccc(C(=O)O)cc2C)C1`: the IC50 with red blood cells stood at 89.8 nM. Further, the “hemolysis inhibition IC50 value, fold better than that of comparative compound D1” value in the series on red blood cells (relative to D1) is “approximately 2 fold”. For the same compound, the Kd on complement factor B (Table 9, Test Example 9) is 5.63 nM. For the same compound, in “PK study in beagle dogs”, the “AUCINF _obs” value worked out at 8568.02 ng·h/mL, the AUClast is 8509.98 ng·h/mL, the C0/Cmax is 1473.27 ng/mL and the Cl_F_obs turned out to be 2.327 mL/min/kg. In the series “PK study in beagle dogs”, the “MRTINF _obs” value was determined as 6.41 h, the MRTlast stood at 6.15 h, the T1/2 turned out to be 5.92 h and the Tmax (usually the time at which the peak concentration occurs) is reported as 0.42 h. The Vz_F_obs in the series “PK study in beagle dogs” worked out at 1.03781 L/kg. For the same compound, the IC50 in [2] (read-out: AP complement deposition assay, Table 3) came out at 58.5 nM. Besides, in series [2] (setting [6]), the IC50 stood at 54.9 nM. Moreover, the IC50 on CVF-Bb (Table 2, Test Example 2) came out at 11.2 nM. In addition, the IC50 on CVF-Bb (Table 10, Test Example 10) came out at 12.8 nM. For the same compound, the IC50 in the series with rabbit erythrocytes came out at 548 nM. Moreover, in series [3], the “AUCINF _obs” value came out at 2947.03 ng·h/mL, the AUClast is 2890.13 ng·h/mL, the C0/Cmax is 545.29 ng/mL and the Cl_F_obs is 5.9955 mL/min/kg. In series [3], the “MRTINF _obs” value is 5.13 h, the MRTlast was 4.74 h, the T1/2 was determined as 3.49 h and the Tmax is 0.88 h. In series [3], this compound registered a Vz_F_obs of 1.71948 L/kg and an F of 136.82%. In series [1], the “Chemical Purity” value is on record as “Unchanged” and the “Chiral Purity” value is listed as -0.41%. Also, in series [4] (setting [7]), the “C3b content” value is 77.19 ± 8.93 ng/mL. Moreover, the “plasma C3b levels compared with the model control group” value in series [4] (60 mg/kg oral gavage) was “significantly reduced”. In series [4] (setting [8]), the “C3b content (ng/ml)” value is listed as 73.16±5.36**^$ ng/ml. In addition, in [4] (120 mg/kg oral gavage), the “plasma C3b levels compared with the model control group” value is “significantly reduced”. In series [5] (iv), the AUCINF obs turned out to be 3982.96 ng·h/mL, the AUClast was found to be 3975.81 ng·h/mL, the C0/Cmax was found to be 1533.65 ng/mL and the “Cl F obs” value amounted to 4.1845 mL/min/kg. Besides, in [5] (iv), the MRTINF obs is 3.51 h, the MRTlast is on record as 3.47 h, the T1/2 turned out to be 2.61 h and the “VZ F obs” value was determined as 0.944 L/kg. In addition, in series [5] (po (oral gavage)), the AUCINF obs came out at 4146.24 ng·h/mL, the AUClast came to 4134.29 ng·h/mL, the C0/Cmax is 780.43 ng/mL and the “Cl F obs” value came to 4.0197 mL/min/kg. For the same compound, in [5] (po (oral gavage)), the MRTINF obs turned out to be 4.61 h, the MRTlast was found to be 4.54 h, the T1/2 stood at 2.83 h and the Tmax is recorded as 0.250 h. In addition, in series [5] (po (oral gavage)), the “VZ F obs” value worked out at 0.98341 L/kg and the F is reported as 104.10%.
For the compound `CCO[C@H]1CCN(Cc2c(OC)cc(C)c3[nH]ccc23)[C@H](c2ccc(C(=O)O)cc2)C1`, in the series with red blood cells, the IC50 amounted to 165 nM. Besides, in series [3], the “AUCINF _obs” value stood at 2170.66 ng·h/mL, the AUClast came to 2028.57 ng·h/mL, the Cl_F_obs was 8.2385 mL/min/kg and the “MRTINF _obs” value stood at 7.11 h. In addition, in series [3], the MRTlast came to 5.59 h, the T1/2 is 4.14 h, the Tmax was 0.79 h and the Vz_F_obs stood at 3.0164 L/kg. In [3], this compound gave an F of 102.38%. Moreover, in series [1], the “Chemical Purity” value was -6.48% and the “Chiral Purity” value is listed as “Unchanged”. In addition, the “C3b content” value in series [4] (setting [7]) is 100.01 ± 14.44 ng/mL. Moreover, the “plasma C3b levels compared with the model control group” value in [4] (60 mg/kg oral gavage) is “decreasing trend”. Also, the “C3b content” value in series [4] (setting [8]) came out at 89.89 ± 16.73 ng/mL. In series [4] (120 mg/kg oral gavage), the “plasma C3b levels compared with the model control group” value is “significantly reduced”. In [5] (iv), the AUCINF obs was 2216.50 ng·h/mL, the AUClast was determined as 2132.34 ng·h/mL, the “Cl F obs” value is 7.5193 mL/min/kg and the MRTINF obs worked out at 5.44 h. In [5] (iv), the MRTlast is given as 4.38 h, the T1/2 is listed as 5.77 h and the “VZ F obs” value was 3.75547 L/kg. Besides, in [5] (po (oral gavage)), the AUCINF obs is 2708.24 ng·h/mL, the AUClast worked out at 2609.90 ng·h/mL, the “Cl F obs” value was 6.154 mL/min/kg and the MRTINF obs was determined as 7.26 h. In series [5] (po (oral gavage)), the MRTlast is on record as 6.35 h, the T1/2 is on record as 5.22 h, the Tmax is 0.500 h and the “VZ F obs” value was 2.77822 L/kg. In series [5] (po (oral gavage)), this compound displayed an F of 122.19%.
As for `[2H]c1[nH]c2c(C)cc(OC)c(CN3CC[C@H](OCC)C[C@H]3c3ccc(C(=O)O)cc3C)c2c1[2H]`, in series [1], the “Chemical Purity” value was -4.25% and the “Chiral Purity” value is reported as -2.33%.
`[2H]C([2H])([2H])C([2H])([2H])O[C@H]1CCN(Cc2c(OC)cc(C)c3[nH]ccc23)[C@H](c2ccc(C(=O)O)cc2C)C1`: the Kd at complement factor B (Table 9, Test Example 9) was found to be 4.46 nM. Besides, in the series “PK study in beagle dogs”, the “AUCINF _obs” value amounted to 8478.75 ng·h/mL, the AUClast was 8434.01 ng·h/mL, the C0/Cmax was found to be 1249.67 ng/mL and the Cl_F_obs was determined as 2.0262 mL/min/kg. Also, in the series “PK study in beagle dogs”, the “MRTINF _obs” value is listed as 7.87 h, the MRTlast is on record as 7.63 h, the T1/2 came out at 6.46 h and the Tmax turned out to be 0.83 h. For the same compound, the Vz_F_obs in the series “PK study in beagle dogs” was 1.11549 L/kg. The same compound returned a F in “PK study in beagle dogs” (relative oral bioavailability) of 98.96%. For the same compound, the IC50 in series [2] (setting [6]) is 55.5 nM. For the same compound, the IC50 on CVF-Bb (Table 10, Test Example 10) worked out at 16 nM. Besides, the IC50 with rabbit erythrocytes is 568 nM. Also, in series [1], the “Chemical Purity” value is listed as “Unchanged” and the “Chiral Purity” value is reported as -0.55%.
`COc1cc(C)c2[nH]ccc2c1CN1CCCCC1c1ccc(C(=O)O)cc1C` (centres unmarked): the IC50 in the series on red blood cells is 624 nM. The Kd at complement factor B (Table 1, Test Example 1) was determined as 19 nM. Further, the IC50 on CVF-Bb (Table 2, Test Example 2) turned out to be 50.9 nM. For the same compound, in series [5] (iv), the AUCINF obs was 881.92 ng·h/mL, the AUClast is 877.37 ng·h/mL, the C0/Cmax stood at 806.67 ng/mL and the “Cl F obs” value came to 18.8982 mL/min/kg. Besides, in series [5] (iv), the MRTINF obs amounted to 1.91 h, the MRTlast was 1.85 h, the T1/2 is 1.66 h and the “VZ F obs” value is 2.71914 L/kg. Also, in series [5] (oral gavage), the “AUCINF _obs as percentage of that in the Compound I oral gavage group” value was “approximately 22.7%” and the “Cmax as percentage of that in the Compound I oral gavage group” value is “approximately 44.8%”. In series [5] (po (oral gavage)), the AUCINF obs was determined as 943.54 ng·h/mL, the AUClast stood at 937.46 ng·h/mL, the C0/Cmax is reported as 349.90 ng/mL and the “Cl F obs” value is 17.6638 mL/min/kg. Besides, in [5] (po (oral gavage)), the MRTINF obs came out at 2.70 h, the MRTlast stood at 2.62 h, the T1/2 amounted to 1.73 h and the Tmax came out at 0.50 h. Further, in [5] (po (oral gavage)), the “VZ F obs” value stood at 2.65276 L/kg and the F turned out to be 106.99%.
For `[2H]c1c([2H])c([C@@H]2C[C@@H](OCC)CCN2Cc2c(OC)cc(C)c3[nH]ccc23)c(C)c([2H])c1C(=O)O`, in [1], the “Chemical Purity” value was “Unchanged” and the “Chiral Purity” value is on record as -0.41%.
The matching figures for `[2H][C@]1(OCC)CCN(Cc2c(OC)cc(C)c3[nH]ccc23)[C@H](c2ccc(C(=O)O)cc2C)C1`: -4.55% and -0.33%.
For `CCO[C@@H]1CCN(Cc2c(OC)cc(C)c3[nH]ccc23)[C@@H](c2ccc(C(=O)O)cc2C)C1`, the IC50 in the series on rabbit erythrocytes was above 1000 nM.
